Activation data for 44 molecules are collected here from PubChem BioAssay AID624171 (National Center for Advancing Translational Sciences (NCATS), 2012).

SMILES strings stand for the structures. The list shows a part of the results, in another mix than the full data. Active and inactive are the calls of the source. Calls come from the whole dose curve; as a rule, active = well fitted activation curve with a large enough effect; inconclusive = small, poorly fitted or top-dose-only effect; inactive = flat fitted curve, though single readings scatter.

The assay is described as follows: qHTS of Nrf2 Activators. Note: % of control where 0% means no effect; nearly all actives have a fitted effect of over 65% in size. The following applies: AREc32 ARE-luciferase reporter (MCF7-derived line), luminescence, 24 h; at 46.1 µM (top of the series). The text has this: Many diseases have some form of oxidative stress injury and ties to inflammation, causing a host of problems for the patient. The antioxidant response element (ARE) plays an important role in alleviating the harmful effects of oxidative stress. The antioxidant response element (ARE) is a transcriptional regulatory element involved in the activation of genes coding for a number of antioxidant proteins and detoxifying enzymes. These enzymes work in concert to protect tissues from oxidative insults and chemical toxicities in human hepatocytes and immune cells. The protective effects of ARE activation are primarily triggered through Nrf2 (NF-E2-related factor) binding to and activating AREs. It is known that Nrf2 controls the production of over 250 antioxidant and detoxification proteins (Hu et al., 2006), thereby protecting tissues by increasing cellular antioxidant content and suppressing inflammatory signaling pathways. The transcription factor Nrf2 is a central link between oxidative chemicals, such as phenolic antioxidants and electrophilic compounds, and the activation of ARE. Nrf2 levels are constitutively low as a consequence of its interaction with Keap1, which targets its degradation (Zipper and Mulcahy, 2002). Electrophiles react with key cysteine residues in Keap1, releasing Nrf2 and allowing its translocation to the nucleus. Once within the nucleus, Nrf2 complexes with coactivators such as p300, and binds to the AREs to induce gene transcription of cytoprotective enzymes, resulting in the prevention of toxicity. Activation of Nrf2 protects tissues by increasing cellular antioxidant content and suppressing inflammatory signaling pathways. Identifying novel and potent Nrf2 activators by using the AREc32 cell line to detect ARE activation by small molecules will lead to the identification and development of probes to study protective pathways in multiple tissues. These specific probes are essential to study the ARE pathway, and eventually to determine whether this pathway does activate genes that could protect against a host of diseases, including cardiovascular diseases, obesity, diabetes, Alzheimer's, and Parkinson's disease.
This project's aim is to identify novel and potent Nrf2 activators by using the AREc32 cell line to detect ARE activation by small molecules, which will lead to the identification and development of probes to study the ARE pathway.
NIH Chemical Genomics Center [NCGC]
NIH Molecular Libraries Probe Centers Network [MLPCN]
Assay Submitter (PI): Curtis Klaassen, University of Kansas Medical Center
5 uL of 1000 cells/well of AREc32_Fluc cells are seeded into 1536-well plate in OPTI-MEM medium with 5% FBS. The plates are incubated overnight at 37 deg C with 5% CO2. Then through pin tool transfer, 23 nL of compounds are added to each well before a 24 hr incubation at 37 deg C with 5% CO2. After the addition of 2.5 uL of Steady-Glo. the plates are kept at RT for 30 min, before they are read on the ViewLux.
In general terms: Quantitative high-throughput screening tests each substance at several concentrations.
For `CC1=NCCc2c1[nH]c1ccccc21.O=[N+]([O-])c1cc([N+](=O)[O-])c(O)c([N+](=O)[O-])c1`, the activation was inactive: 2.21%.

`Cc1ccc(C)c(NP(C)(=O)Oc2ccccc2)c1` (centres undefined): the activation was inactive: 0.41%.

For the molecule `CP(=O)(Nc1cccc(Br)c1)Oc1ccccc1` (centres undefined), the activation was inactive: 0.16%.

Turning to `Cc1cc(C)cc(OP(C)(=O)Nc2ccccn2)c1` (centres undefined), the activation was inactive: -0.488%.

With `COc1ccccc1OP(C)(=O)Nc1cccc(Br)c1` (centres undefined), the activation was inactive: 0.259%.

In the case of `CCOC(=O)c1ccc(NP(C)(=O)Oc2cc(C)cc(C)c2)cc1` (centres undefined), the activation is inactive: -0.0208%.

In the case of `Cc1cc(C)cc(OP(C)(=O)Nc2ccc(C)cc2C)c1` (centres undefined), the activation is inactive: -0.537%.

`O=[N+]([O-])c1cc([N+](=O)[O-])c(-c2cnn(-c3ccccc3)c2)c([N+](=O)[O-])c1`: the activation was inactive: -1.6%.

`Cc1nc2ccc3ccccc3c2s1.O=[N+]([O-])c1cc([N+](=O)[O-])c(O)c([N+](=O)[O-])c1`: the activation was inactive: 5.74%.

As for `O=[N+]([O-])c1cc([N+](=O)[O-])c(-n2nnc3ccccc32)c([N+](=O)[O-])c1`, the activation was inactive: 0.0727%.

Consider `CN(Cc1cccnc1)C(=O)COc1ccc(Cl)c(Cl)c1.O=[N+]([O-])c1cc([N+](=O)[O-])c(O)c([N+](=O)[O-])c1`, for which the activation is inactive: 1.24%.

As for `CN1CCCCC1COC(=O)C1(O)c2ccccc2CCc2ccccc21` (centres undefined), the activation was inactive: 3.66%.

As to `COc1ccccc1OP(C)(=O)Nc1c(C)cccc1C` (centres undefined), the activation was inactive: 0.389%.

For `CP(=O)(Nc1ccc(SC(F)(F)F)cc1)Oc1ccccc1` (centres undefined), the activation is inactive: 0.514%.

For `CCCOc1ccc(NP(C)(=O)Oc2ccc(Cl)cc2)cc1` (centres undefined), the activation is inactive: 0.597%.

As for `O=[N+]([O-])c1cc([N+](=O)[O-])c(Nc2nnnn2CCO)c([N+](=O)[O-])c1`, the activation was inactive: 1.31%.

For `CC1=C2N=C(C=C3N=C(C(C)=C4[N-][C@@](C)([C@@H]5N=C1[C@](C)(CCC(=O)NC[C@@H](C)OP(=O)([O-])O[C@H]1[C@@H](O)[C@@H](n6cnc7cc(C)c(C)cc76)O[C@@H]1CO)[C@H]5CC(N)=O)[C@@](C)(CC(N)=O)[C@@H]4CCC(N)=O)[C@@](C)(CC(N)=O)[C@@H]3CCC(N)=O)C(C)(C)[C@@H]2CCC(N)=O.[C-]#N.[Co+3]`, the activation was inactive: 0.19%.

Regarding `CP(=S)(Nn1cnnc1)Oc1ccccc1` (centres undefined), the activation was inactive: 0.295%.

Turning to `CP(=O)(Nc1ccccc1Br)Oc1ccccc1` (centres undefined), the activation was inactive: -0.407%.

In the case of `COc1ccccc1OP(C)(=O)Nc1ccccc1` (centres undefined), the activation is inactive: 0.124%.

With `O=[N+]([O-])c1cc([N+](=O)[O-])c(O)c([N+](=O)[O-])c1.c1ccc(Oc2ccncc2)cc1`, the activation was inactive: -0.0827%.

With `CCOC(=O)c1ccc(NP(C)(=O)Oc2ccc(OC)cc2)cc1` (centres undefined), the activation was inactive: 0.0535%.

In the case of `CCOP(C)(=S)SCC(=O)NC(C)C(=O)O` (centres undefined), the activation was inactive: 0.0918%.

Regarding `CP(=O)(Nc1ccccn1)Oc1ccc(Cl)cc1` (centres undefined), the activation was inactive: 0.285%.

Take `CP(=O)(Oc1ccccc1)OC(c1ccccc1)C(F)(F)F` (centres undefined): the activation was inactive: 0.25%.

`CP(=O)(Nc1ccc(SC(F)(F)F)cc1)Oc1ccc(Cl)cc1` (centres undefined): the activation was inactive: 0.0827%.

In the case of `Cc1cccc(C)c1OP(C)(=O)Nc1ccc(SC(F)(F)F)cc1` (centres undefined), the activation was inactive: 0.116%.

In the case of `Cc1cc(C)cc(OP(C)(=O)Nc2ccc(SC(F)(F)F)cc2)c1` (centres undefined), the activation was inactive: 1.84%.

Take `CCc1ccc(OP(C)(=O)N2CCN(c3ccc([N+](=O)[O-])cc3)CC2)cc1` (centres undefined): the activation is inactive: 3.05%.

`CP(=O)(NC(=O)Nc1ccccc1)Oc1ccccc1` (centres undefined): the activation is inactive: -0.133%.

As to `COc1ccccc1-c1ccccn1.O=[N+]([O-])c1cc([N+](=O)[O-])c(O)c([N+](=O)[O-])c1`, the activation was inactive: 0.0588%.

With `CCN(CC)CCCOC(=O)C(O)(c1ccccc1)c1ccccc1`, the activation is inactive: -0.599%.

Consider `Cc1ccc(NP(C)(=O)Oc2ccccc2)c(C)c1` (centres undefined), for which the activation was inactive: 1.86%.

Turning to `COc1ccccc1OP(C)(=O)Nc1ccc(C)cc1` (centres undefined), the activation is inactive: 0.238%.

Consider `CCOC(=O)c1ccc(NP(C)(=O)Oc2ccccc2)cc1` (centres undefined), for which the activation was inactive: -0.263%.

As for `Cc1cc(C)cc(OP(C)(N)=O)c1` (centres undefined), the activation is inactive: -0.818%.

On to `COc1ccc(OP(C)(=O)Nc2cccc(F)c2)cc1` (centres undefined), for which the activation is inactive: 0.265%.

For `COc1ccccc1OP(C)(=O)Nc1cc(Cl)ccc1C` (centres undefined), the activation is inactive: -0.613%.

Turning to `O=[N+]([O-])c1cc([N+](=O)[O-])c(Nc2cccnc2)c([N+](=O)[O-])c1`, the activation is inactive: 15.1%.

In the case of `O=[N+]([O-])c1ccc2c(c1)C=Nc1ccccc1O2`, the activation is inactive: 12%.

For `Cc1cccc(C)c1OP(C)(N)=O` (centres undefined), the activation was inactive: -0.0432%.

Consider `CC(C)(C)c1ccc(OP(C)(=O)Nc2ccc(SC(F)(F)F)cc2)cc1` (centres undefined), for which the activation was inactive: -1.44%.

For the molecule `CP(=O)(OCCOc1ccccc1)OCCOc1ccccc1`, the activation is inactive: -0.208%.

Regarding `CCCCCCCCCCCCCCCC1C[N+](C)(C)CCOP(C)(=O)O1` (centres undefined), the activation is inactive: -0.175%.
